Results taken from PubChem BioAssay AID652078 (The Scripps Research Institute Molecular Screening Center, 2013).

Assays:
Experiment in all cases: PubChem AID 652078
Settings in all cases: equilibrium dialysis LC-MS/MS, 8 h, at 1 µM, hits give high values
[1] = tested on: rat
[2] = tested on: human
[3] = tested on: mouse

Measured: plasma protein binding

COC(=O)c1cc(Br)cnc1N1CCC(NC2CCCCC2)C(O)C1 (stereo not drawn)
active: [1] 99% | [2] 73% | [3] 96%
